Test results from patent US20230373989A1, “N-PHENYLAMINOCARBONYL PYRIDINO-, PYRIMIDINO AND BENZO-TROPANES AS MODULATORS OF GPR65” (PATHIOS THERAPEUTICS LIMITED, priority 2020, published 2023).

Chains of the proteins cited; added tags and fusions are not shown.
UniProt Q8IYL9, whole entry: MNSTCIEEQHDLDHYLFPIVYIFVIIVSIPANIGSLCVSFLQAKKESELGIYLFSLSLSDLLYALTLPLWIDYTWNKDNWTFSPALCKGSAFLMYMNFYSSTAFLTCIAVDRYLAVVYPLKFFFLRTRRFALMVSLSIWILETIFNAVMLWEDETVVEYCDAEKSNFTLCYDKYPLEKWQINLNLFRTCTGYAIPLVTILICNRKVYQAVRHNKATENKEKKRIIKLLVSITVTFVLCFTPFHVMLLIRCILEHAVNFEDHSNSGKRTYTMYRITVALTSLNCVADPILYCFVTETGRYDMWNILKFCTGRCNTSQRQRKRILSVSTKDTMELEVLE

Biological target: human recombinant GPR65 (Homo sapiens, UniProt Q8IYL9)
Assay: Human GPR65 cAMP HTRF antagonist assay
Type: cell-based
Settings: read-out: hGPR65 IC50 (activity class); 1321N1-hrGPR65 cells, assay pH 7.2, cAMP HTRF
Text: In one preferred embodiment, the compound prevents the increase in cytoplasmic cAMP levels expected following GPR65 activation at acidic pH. This prevention of cAMP accumulation in turn prevents downstream signalling through ICER, as described above. The “Human GPR65 cyclic adenosine monophosphate (cAMP) Homogeneous Time Resolved Fluorescence (HTRF) antagonist assay”, or simply “cAMP assay”, as described in the accompanying examples, can be used to measure the potency of GPR65 modulators, which is expressed as the concentration of compound required to reduce the increase in cAMP concentration upon GPR65 activation by 50% (i.e. an IC50).
Human GPR65 Cyclic Adenosine Monophosphate (cAMP) Homogeneous Time Resolved Fluorescence (HTRF) Antagonist Assay Procedure
IC50 data was obtained by the following procedure:
1321N1 human astrocytoma cells stably expressing human recombinant GPR65 (1321N1-hrGPR65 cells, EuroscreenFast) were cultured according to the vendor's instructions. […]
Accumulation of cAMP was detected by cAMP HTRF kit (Cisbio). d2-labeled cAMP and cryptate-labeled anti-cAMP antibody in Lysis and Detection Buffer (Cisbio) were added to assay plates, and the plates were incubated at room temperature for 1 h. […] Acceptor and donor emission signals were measured at 665 nm and 620 nm, respectively, and HTRF ratios were calculated as signal665 nm/signal620 nm×104. […]

## C[C@]12CC[C@H](c3ccncc3C1)N2C(=O)Nc1ccc(C(F)(F)F)c(Cl)c1
  IC50: 0.5 to 5 µM
